Laboratory results reported in BindingDB's records for doi:10.1021/jm049538w (Glaxosmithkline, 2005).
pIC50: −log10 of the molar value.

The chains behind the UniProt entries cited, without tags or fusion partners.
UniProt P35968, whole entry: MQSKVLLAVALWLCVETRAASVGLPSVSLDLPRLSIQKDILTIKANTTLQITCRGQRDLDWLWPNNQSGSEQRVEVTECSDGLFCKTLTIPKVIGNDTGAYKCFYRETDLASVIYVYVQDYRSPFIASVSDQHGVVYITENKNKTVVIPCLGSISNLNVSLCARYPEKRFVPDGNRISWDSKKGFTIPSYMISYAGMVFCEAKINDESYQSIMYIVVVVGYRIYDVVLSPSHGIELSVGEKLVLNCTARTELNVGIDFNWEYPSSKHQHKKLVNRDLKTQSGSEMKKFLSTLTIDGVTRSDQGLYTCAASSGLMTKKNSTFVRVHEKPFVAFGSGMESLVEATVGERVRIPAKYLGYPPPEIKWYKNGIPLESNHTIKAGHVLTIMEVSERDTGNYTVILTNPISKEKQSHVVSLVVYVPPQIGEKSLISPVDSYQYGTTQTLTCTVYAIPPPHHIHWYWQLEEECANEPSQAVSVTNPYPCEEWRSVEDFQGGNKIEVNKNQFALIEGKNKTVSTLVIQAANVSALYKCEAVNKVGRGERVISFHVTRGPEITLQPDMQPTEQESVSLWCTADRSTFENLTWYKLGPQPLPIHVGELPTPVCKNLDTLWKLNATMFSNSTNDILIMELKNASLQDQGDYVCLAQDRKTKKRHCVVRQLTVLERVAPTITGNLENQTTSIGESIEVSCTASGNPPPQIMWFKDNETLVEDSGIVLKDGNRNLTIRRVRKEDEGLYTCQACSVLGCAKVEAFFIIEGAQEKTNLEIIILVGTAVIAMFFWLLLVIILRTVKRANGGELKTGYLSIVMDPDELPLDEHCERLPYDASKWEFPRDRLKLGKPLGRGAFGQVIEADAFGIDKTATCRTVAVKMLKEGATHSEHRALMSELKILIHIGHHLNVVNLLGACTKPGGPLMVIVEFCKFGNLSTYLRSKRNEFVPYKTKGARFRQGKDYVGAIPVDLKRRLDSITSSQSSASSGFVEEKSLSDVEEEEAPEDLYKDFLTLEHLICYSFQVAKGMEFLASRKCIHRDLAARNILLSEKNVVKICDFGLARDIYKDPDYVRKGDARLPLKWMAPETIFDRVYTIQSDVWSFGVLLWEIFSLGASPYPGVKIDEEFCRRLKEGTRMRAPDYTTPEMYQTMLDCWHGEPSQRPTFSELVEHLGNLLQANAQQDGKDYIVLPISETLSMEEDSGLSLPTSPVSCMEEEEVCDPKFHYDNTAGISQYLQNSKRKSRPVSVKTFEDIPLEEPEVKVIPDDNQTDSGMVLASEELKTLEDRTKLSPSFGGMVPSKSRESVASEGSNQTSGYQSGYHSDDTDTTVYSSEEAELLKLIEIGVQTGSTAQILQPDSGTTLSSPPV

Target: Vascular endothelial growth factor receptor 2 (Homo sapiens, UniProt P35968)
Test: Homogeneous Time-resolved Fluorescence (HTRF) Assay
Excerpt: The assay was using baculovirus-expressed recombinant protein kinase purified as the intracellular domain fused by GST tag, interacting with biotinylated peptide substrate. HTRF is based on the proximity of europium cryptate (donor fluorophore)-labeled antiphosphotyrosine and streptavidin labeled with APC(allophycocyanin), which have been brought together by a binding reaction.

pIC50: 7.44
Structure (SMILES): CCS(=O)(=O)c1ccc(OC)c(Nc2ncc(-c3cccc(OC)c3)o2)c1 [N-[5-(ethanesulfonyl)-2-methoxyphenyl]-5-(3-methoxyphenyl)-1,3-oxazol-2-amine]
